Reference: patent US8716309B2, “Pharmaceutical composition comprising pyridone derivatives” (priority 2011, dated 2014)

Amino acid sequences for entries named in this document (tags omitted). Residues count along the entry.
UniProt P36544, 23-502 limits assumed: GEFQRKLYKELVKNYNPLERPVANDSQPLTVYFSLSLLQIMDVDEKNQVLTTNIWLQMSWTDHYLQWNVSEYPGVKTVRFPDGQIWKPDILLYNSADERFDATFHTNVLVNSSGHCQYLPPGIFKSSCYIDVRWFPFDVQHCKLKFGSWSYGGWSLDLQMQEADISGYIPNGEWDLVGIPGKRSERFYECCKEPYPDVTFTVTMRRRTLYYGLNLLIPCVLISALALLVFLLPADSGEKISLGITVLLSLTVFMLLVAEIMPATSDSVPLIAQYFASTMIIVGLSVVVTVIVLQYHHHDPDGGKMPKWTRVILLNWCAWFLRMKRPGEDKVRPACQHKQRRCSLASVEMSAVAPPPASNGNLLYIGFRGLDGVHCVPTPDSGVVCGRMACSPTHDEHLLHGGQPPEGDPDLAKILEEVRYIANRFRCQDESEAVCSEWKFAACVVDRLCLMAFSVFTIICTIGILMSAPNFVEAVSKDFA

Target: human α7 nAChR (Homo sapiens, UniProt P36544)
Test: FlexStation-Ca2+ influx assay, human α7 nAChR activity
Assay type: cell-based
Details: read-out: EC50 of human α7nAChR; HEK293T/17 cells transfected with human α7 nAChR; PNU-120596 added; relative to epibatidine 1 μM positive control

## O=C(OC1CN2CCC1CC2)c1ccc(=O)n(-c2ccccc2)c1 (stereo not shown)
  EC50: > 1000 nM
